Source: paper PMC5970969 (Nature cell biology, 2018)

Target: recombinant PAX5 protein (human, UniProt Q02548)
Assay: pull-down

binding result: binds
B1: recombinant OCT4-GST fusion protein (natural protein, human, UniProt Q01860 1-360, looked up)
chain: MAGHLASDFAFSPPPGGGGDGPGGPEPGWVDPRTWLSFQGPPGGPGIGPGVGPGSEVWGIPPCPPPYEFCGGMAYCGPQVGVGLVPQGGLETSQPEGEAGVGVESNSDGASPEPCTVTPGAVKLEKEKLEQNPEESQDIKALQKELEQFAKLLKQKRITLGYTQADVGLTLGVLFGKVFSQTTICRFEALQLSFKNMCKLRPLLQKWVEEADNNENLQEICKAETLVQARKRKRTSIENRVRGNLENLFLQCPKPTLQQISHIAQQLGLEKDVVRVWFCNRRQKGKRSSSDYAQREDFEAAGSPFSGGPVSFPLAPGPHFGTPGYGSPHFTALYSSVPFPEGEAFPPVSVTTLGSPMHSN
